Reference: ChEMBL document CHEMBL1133555 (J Med Chem, 2000)

The chains behind the UniProt entries cited, without tags or fusion partners.
UniProt P23977, whole entry: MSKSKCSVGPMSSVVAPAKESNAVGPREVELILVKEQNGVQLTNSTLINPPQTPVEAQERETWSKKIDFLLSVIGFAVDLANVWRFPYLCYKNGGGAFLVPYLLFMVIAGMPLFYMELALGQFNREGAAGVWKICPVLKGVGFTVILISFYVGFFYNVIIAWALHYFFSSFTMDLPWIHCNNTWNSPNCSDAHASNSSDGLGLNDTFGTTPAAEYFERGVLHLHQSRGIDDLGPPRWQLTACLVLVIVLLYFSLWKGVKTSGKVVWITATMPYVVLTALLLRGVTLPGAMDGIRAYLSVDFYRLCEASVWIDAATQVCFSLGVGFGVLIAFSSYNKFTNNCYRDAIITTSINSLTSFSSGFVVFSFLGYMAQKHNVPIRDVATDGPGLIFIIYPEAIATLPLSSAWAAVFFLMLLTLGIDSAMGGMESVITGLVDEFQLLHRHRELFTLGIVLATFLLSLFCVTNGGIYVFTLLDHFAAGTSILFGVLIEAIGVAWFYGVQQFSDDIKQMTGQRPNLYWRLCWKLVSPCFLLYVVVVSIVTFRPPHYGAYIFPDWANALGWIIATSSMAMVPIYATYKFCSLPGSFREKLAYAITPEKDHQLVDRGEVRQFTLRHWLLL

Target: Sodium-dependent dopamine transporter (Rattus norvegicus, UniProt P23977)
Assay: Binding affinity for dopamine transporter (DAT) labeled with [125 I]RTI-55
Outline: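 Competition binding assay: DAT and SERT sites labelled with [125I]RTI-55, NET sites labelled with [3H]nisoxetine. Test compounds displace the radioligand from each site. Otherwise run by previously published procedures.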

CNC1CC(c2ccc(Cl)c(Cl)c2)c2ccccc21 (stereo unspecified) [INDATRALINE] was tested, and the Ki was 1.7 nM.
